The test concerns the target T1, P2X purinoceptor 7 (Rattus norvegicus, UniProt Q64663).
T1 sequence (Q64663 whole entry): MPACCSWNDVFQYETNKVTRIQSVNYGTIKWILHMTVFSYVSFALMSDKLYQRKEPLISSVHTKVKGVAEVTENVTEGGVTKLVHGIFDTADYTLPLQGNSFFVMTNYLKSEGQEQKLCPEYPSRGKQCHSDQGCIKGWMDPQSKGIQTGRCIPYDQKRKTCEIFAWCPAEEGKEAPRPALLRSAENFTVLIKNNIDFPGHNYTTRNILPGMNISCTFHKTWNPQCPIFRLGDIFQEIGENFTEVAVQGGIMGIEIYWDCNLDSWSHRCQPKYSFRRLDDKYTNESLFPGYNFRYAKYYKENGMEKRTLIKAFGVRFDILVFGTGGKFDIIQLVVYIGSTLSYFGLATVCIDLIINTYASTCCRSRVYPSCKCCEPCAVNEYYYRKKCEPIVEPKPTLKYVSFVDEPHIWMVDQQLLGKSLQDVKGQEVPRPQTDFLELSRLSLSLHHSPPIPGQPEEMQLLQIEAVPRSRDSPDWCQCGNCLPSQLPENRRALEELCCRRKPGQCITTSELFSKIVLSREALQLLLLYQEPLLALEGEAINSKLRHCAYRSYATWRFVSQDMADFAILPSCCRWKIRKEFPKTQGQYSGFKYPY
Description: Ca2+ Flux Assay: 1321N1 cells expressing the recombinant human or rat P2X7 channel was cultured in HyQ DME/(HyClone/Dulbecco's Modified Eagle Medium) high glucose supplemented with 10% Fetal Bovine Serum (FBS) and appropriate selection marker. Cells were seeded at a density of 25000 cells/well (96-well clear bottom black walled plates) in 100 μl volume/well. On the day of the experiment, cell plates were washed with assay buffer, containing (in mM): 130 NaCl, 2 KCl, 1 CaCl2, 1 MgCl2, 10 HEPES, 5 glucose; pH 7.40 and 300 mOs. After the wash, cells were loaded with the Calcium-4 dye (Molecular Device) and incubated in the dark for 60 minutes. Test compounds were prepared at 250× the test concentration in neat DMSO. Intermediate 96-well compound plates were prepared by transferring 1.2 μL of the compound into 300 μL of assay buffer. A further 3× dilution occurred when transferring 50 μL/well of the compound plate to 100 μL/well in the cell plate. Cells were incubated with test compounds and dye for 30 minutes. Calcium dye fluorescence was monitored in FLIPR as the cells were challenged by adding 50 μL/well of BzATP (final concentration is 250 μM BzATP (human and rat)). The test is classed as cell-based. (Calcium flux is commonly read through the fluorescence of an indicator in the cells.)

SMILES strings stand for the structures.

For orientation: Ki means the equilibrium dissociation constant of an inhibitor or competing ligand from its target. Turning to `Cc1cccc(-c2nnc3n2C[C@H]2CCC[C@@H]3N2C(=O)c2cccc(C(F)(F)F)c2Cl)n1` (single isomer, unassigned), the Ki was 5 nM.

The record behind these values is ChEMBL document CHEMBL5725429, “P2X7 modulators” (2017).
